Assay results from patent publication US10653796B2, “Liposomes containing cell penetrating peptides and tetraetherlipids for the oral delivery of macromolecules” (Universität Heidelberg, priority 2015, dated 2020).

Legend:
A431 = assay: Tumor accumulation of radiolabeled Cetuximab after oral application; format: in vivo, Balb/c mice; conditions: oral liposomes containing 1 mol-% cyclic CPP-conjugate vs free, A431 tumor bearing mice
Method: In order to determine the tumor enrichment of Cetuximab incorporated into the liposomes containing 1 mol-% of the cyclic CPP-conjugate, respective liposomes were administered into tumor bearing mice. To obtain these mice, the cell line A431 was injected into Balb/c mice (overexpression of EGFR). The antibody Cetuximab was radiolabeled, incorporated into the liposomes and afterwards applicated orally into the mice.
The animal study was performed according to local authorities using male Wistar rats with a body weight of about 200-250 g. For the determination of the tumor enrichment of Cetuximab, the antibody was radiolabeled with ^131I and incorporated into the liposomal formulation containing 1 mol-% of the cyclic CPP-phospholipid-conjugate and compared with Cetuximab free/i.v. as described previously. At several time points, the tumor enrichment was measured by direct counting of the radiolabeled sample. Briefly, groups (n≥3) of male Wistar rats were formed. Prior to 12 h of the experiment, the rats were kept without food, but with free access to water. […] The blood was removed, weighed and the radioactivity was measured using a Berthold LB 951 G counter in comparison with standards. The blood-associated activity was related to the total injected dose (ID) and expressed as a percentage of the total injected dose per gram of tissue (% ID/g tumor).

[1] = Radioactivity at determined time points after oral application of radiolabeled substances; format: in vivo; conditions: radiolabeled substance

For “Cetuximab: antibody incorporated into the liposomes; tested in EGFR-overexpressing A431 tumor mice”, the tumor accumulation (A431) was “significant increase” and the “mucosal uptake by the liposomal formulations” value [1] was “strongly enhanced mucosal uptake”.
